Reference: patent US20080293081A1, “Fluorescence Polarization Assays for Acetyltransferase/Deacetylase Activity” (Sirtris Pharmaceuticals, Inc., priority 2005, published 2008)
Like-named read-outs stand apart in the source and are kept apart here.

Sequences of proteins named here, by UniProt entry; tags and fusion partners are left off. A change or cut given only in a name is not applied to a line headed by its entry.
UniProt Q9NTG7: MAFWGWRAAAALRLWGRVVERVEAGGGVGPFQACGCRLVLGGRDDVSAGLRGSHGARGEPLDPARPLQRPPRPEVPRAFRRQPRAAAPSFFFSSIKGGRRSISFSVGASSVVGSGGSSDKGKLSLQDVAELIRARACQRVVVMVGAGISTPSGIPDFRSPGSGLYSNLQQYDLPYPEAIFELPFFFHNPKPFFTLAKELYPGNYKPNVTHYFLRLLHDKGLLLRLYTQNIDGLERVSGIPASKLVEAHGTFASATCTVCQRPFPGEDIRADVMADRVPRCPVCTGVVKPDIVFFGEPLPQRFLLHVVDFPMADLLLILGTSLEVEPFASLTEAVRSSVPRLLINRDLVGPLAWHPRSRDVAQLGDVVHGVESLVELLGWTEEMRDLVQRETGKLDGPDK
UniProt Q8IXJ6: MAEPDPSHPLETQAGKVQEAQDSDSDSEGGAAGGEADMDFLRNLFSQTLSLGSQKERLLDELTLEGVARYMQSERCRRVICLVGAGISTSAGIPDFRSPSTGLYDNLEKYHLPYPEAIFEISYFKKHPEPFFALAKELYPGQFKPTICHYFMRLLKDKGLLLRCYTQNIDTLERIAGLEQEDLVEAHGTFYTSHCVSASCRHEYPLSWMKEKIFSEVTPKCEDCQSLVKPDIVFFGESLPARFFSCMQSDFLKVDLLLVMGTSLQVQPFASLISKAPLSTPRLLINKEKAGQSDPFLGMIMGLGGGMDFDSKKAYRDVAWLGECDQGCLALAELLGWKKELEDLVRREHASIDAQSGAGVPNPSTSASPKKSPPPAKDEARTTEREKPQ

Legend:
[1] = target: SIRT3 (Homo sapiens, UniProt Q9NTG7); test: Fluorescence polarization assay, SIRT3 deacetylation of Histone H4-based peptide substrate; type: biochemical; settings: read-out: NAD Km; Km of NAD with the named peptide substrate; Sirt3, fluorescent polarization, present invention
Description: A fluorescence polarization assay was used to identify modulators of SIRT3 activity. The same assay may be used to identify modulators of any sirtuin protein. The assay utilizes a peptide substrate based on a fragment of Histone H4, a known sirtuin deacetylation target. The substrate contains a peptide having 14 amino acid residues as follows: Biotin-GASSHSK(Ac)VLK(MR121) (SEQ ID NO: 23) wherein K(Ac) is an acetylated lysine residue. The peptide is labeled with the fluorophore MR121 (excitation 635 nm/emission 680 nm) at the C-terminus and biotin at the N-terminus.
The peptide substrate is exposed to a sirtuin protein in the presence of NAD^+ to allow deacetylation of the substrate and render it sensitive to cleavage by trypsin. […] The fluorescence polarization signal observed for the full length peptide substrate bound to streptavidin is higher than the fluorescence polarization signal observed for the released MR121 C-terminal fragment. Therefore, the fluorescence polarization obtained is inversely proportional to the level of deacetylation (e.g., the signal is inversely proportional to the activity of the sirtuin protein). Results are read on a microplate fluorescence polarization reader (Molecular Devices Spectramax MD) with appropriate excitation and emission filters. […]

[2] = target: SIRT2 (Homo sapiens, UniProt Q8IXJ6); test: Fluorescence polarization assay, SIRT2 deacetylation of alpha-tubulin-based peptide substrate; settings: Sirt2, fluorescent polarization, present invention

Substance	Km [1] [µM]	Km ([2]; read-out: NAD Km, Km of NAD with the named peptide substrate) [µM]	Km ([2]; read-out: Peptide Km) [µM]
Biotin-GASSHS-K(Ac)-VL-K(MR121)-NH2	50	–	–
Biotin-Nle-PSD-K(Ac)-TIGG-K(MR121)-NH2	–	37	50
